These results are taken from patent US20100119412A1, “Novel Chemistries, Solutions, and Dispersal Systems for Decontamination of Chemical and Biological Systems” (published 2010).

The conditions of series [1]: cited from earlier work; for pKa: solvent not stated.
The nature of series [2]: pKa values of acids and bases in acetonitrile, DMSO and water. The conditions noted are these: comparison of the four butanediol isomers.
The conditions of series [3]: cited from earlier work; for Water Solubility: g/100 grams H2O: Group II linear monoprotic alcohols.

HClO2: the pKa (commonly the negative logarithm of the acid dissociation constant) in series [1] is 2.
In the case of HClO, in series [1], the pKa is 7.2.
Take HClO3: the pKa in series [1] is -1.
For the compound HClO4, in series [1], the pKa result is listed as “strong acid”.
With `CC(O)CCO` (centres unmarked), the “pKa values of the oxygens relative to other butanediol isomers” value in series [2] is “higher pKa values compared to the other butanediol isomers”.
As to `CCO`, the “Water Solubility: g/100 grams H2O” value in series [3] is “infinitely soluble”.
Turning to `CCCCCO`, in series [3], the “Water Solubility: g/100 grams H2O” value was 2.73 grams/100.
Regarding `CCCO`, the “Water Solubility: g/100 grams H2O” value in series [3] is “infinitely soluble”.
Turning to `CCCCCCCCO`, the “Water Solubility: g/100 grams H2O” value in series [3] was “insoluble”.
Turning to `O=[N+]([O-])c1ccc(O)c([N+](=O)[O-])c1`, in series [1] (25° C., solvent DMSO (Group III), for bases, pKa of BH+), the pKa in DMSO was 5.1. The pKa in Acetonitrile in series [1] (25° C., solvent acetonitrile (Group I), for bases, pKa of BH+) is 16.7.
In the case of `CC#N`, the solubility in water entry in series [3] (stated in words in running text) is “soluble in water in all proportions”.
Turning to `CCCCCCCO`, the “Water Solubility: g/100 grams H2O” value in series [3] was 0.174 grams/100.
hydrogen superoxide: the pKa in series [1] was 4.88.
